One molecule from patent US7183314B1, “Compound for treatment of anxiety and methods of preparation and use thereof” (Naturon Limited, priority 2000, dated 2007) can be followed below.

The test concerns GABAA receptor (GABA-activated current in DRG neurons). The following applies: rat DRG neuron, whole-cell patch clamp, n=6, FIG. 2. A general note: In patch-clamp work, channel activity is measured electrically.

For the molecule `CN1C(=O)CN=C(c2ccccc2)c2cc(Cl)ccc21` [diazepam, reference compound], the “Effect on GABA-activated current” value is recorded as “enhancement of GABA effects”.
